# Test results taken from publication PMC3583018 (Synapse (New York, N.Y.), 2010).
# The chains behind the UniProt entries cited, without tags or fusion partners.
# UniProt P14416, whole entry: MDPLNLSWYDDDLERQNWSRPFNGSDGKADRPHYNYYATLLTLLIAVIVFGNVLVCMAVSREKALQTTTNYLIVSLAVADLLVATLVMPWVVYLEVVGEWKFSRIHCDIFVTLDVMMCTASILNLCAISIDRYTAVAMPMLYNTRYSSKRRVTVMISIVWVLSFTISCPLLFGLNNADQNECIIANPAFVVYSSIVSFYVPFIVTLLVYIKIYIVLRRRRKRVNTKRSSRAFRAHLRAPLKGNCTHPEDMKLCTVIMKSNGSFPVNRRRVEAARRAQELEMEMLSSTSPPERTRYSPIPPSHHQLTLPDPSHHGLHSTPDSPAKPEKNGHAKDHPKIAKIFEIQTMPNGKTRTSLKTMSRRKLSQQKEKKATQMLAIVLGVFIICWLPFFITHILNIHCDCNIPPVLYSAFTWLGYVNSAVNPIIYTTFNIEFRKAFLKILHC
# Target: human hD2L receptors (Homo sapiens, UniProt P14416)
# Test: Saturation
# Conditions: hD2L in HEK cells, saturation binding, mean ± S.E.M n = 3
compound,measurement,value
"CCN1CCC[C@H]1CNC(=O)c1c(O)c(Cl)cc(Cl)c1OC (racemic) [[^3H]raclopride, reference compound]",Kd,1.6 ± 0.1 nM
